Measurements published in ChEMBL document CHEMBL1148712, “Design, synthesis, and SAR study of a series of N-alkyl-N'-[2-(aryloxy)-5-nitrobenzenesulfonyl]ureas and -cyanoguanidine as selective antagonists of the TPalpha and TPbeta isoforms of the human thromboxane A2 receptor” (J Med Chem, 2007).

Molecular target: T1, Thromboxane A2 receptor (Homo sapiens) (UniProt P21731)
T1 sequence (whole entry): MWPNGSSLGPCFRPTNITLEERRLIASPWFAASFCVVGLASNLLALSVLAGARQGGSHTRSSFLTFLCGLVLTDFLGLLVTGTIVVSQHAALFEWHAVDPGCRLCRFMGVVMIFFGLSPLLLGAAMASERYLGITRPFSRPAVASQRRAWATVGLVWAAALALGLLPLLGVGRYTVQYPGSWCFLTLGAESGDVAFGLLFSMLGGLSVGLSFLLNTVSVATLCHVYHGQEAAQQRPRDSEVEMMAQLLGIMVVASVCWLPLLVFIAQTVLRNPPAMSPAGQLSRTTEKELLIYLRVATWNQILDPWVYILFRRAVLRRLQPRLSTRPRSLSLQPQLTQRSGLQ
Assay: Ratio of IC50 for thromboxane A2 receptor isoform alpha to IC50 for thromboxane A2 receptor isoform beta
Assay type: functional
Method in brief: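 Selectivity index calculated as IC50 for TPα divided by IC50 for TPβ. Both IC50s come from U46619 (1 µM)-induced Fluo-4 [Ca2+]i assays in HEK293 cells stably overexpressing the respective isoform.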

Ratio IC50: 23.2
SMILES: Cc1cccc(Oc2ccc([N+](=O)[O-])cc2S(=O)(=O)NC(=O)NC(C)(C)C)c1
